Laboratory results as given in US7504407B2, “Compounds specific to adenosine A1 and A3 receptors and uses thereof” (OSI Pharmaceuticals, Inc., priority 2001, dated 2009).

The chains behind the UniProt entries cited, without tags or fusion partners.
UniProt P0DMS8, whole entry: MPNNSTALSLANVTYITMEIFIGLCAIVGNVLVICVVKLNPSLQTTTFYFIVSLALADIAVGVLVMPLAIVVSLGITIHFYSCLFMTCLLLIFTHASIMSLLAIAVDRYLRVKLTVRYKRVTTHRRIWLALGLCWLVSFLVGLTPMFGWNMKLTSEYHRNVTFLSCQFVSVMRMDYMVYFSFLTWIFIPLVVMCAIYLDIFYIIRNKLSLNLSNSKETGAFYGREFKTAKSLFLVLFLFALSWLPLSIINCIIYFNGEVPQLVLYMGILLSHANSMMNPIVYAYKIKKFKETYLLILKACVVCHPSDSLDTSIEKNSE

Molecular target: human A3 receptor (Homo sapiens, UniProt P0DMS8)
Experiment: Displacement binding of [3H]CPX, yeast membranes expressing hA3R

In the case of CC(Cc1ccccc1)Nc1ncnc2c1ncn2C1OC(CO)C(O)C1O (single isomer, unassigned; (-)), the IC50 is reported as 0.0236 µM.
